The text below walks through data of patent US6372790B1, “Pharmaceutical composition comprising a combination of metformin and fibrate, and its use for the preparation of medicines intended to reduce hyperglycaemia” (Merck Patent Gesellschaft mit beschrankter Haftung, priority 1998, dated 2002).

The assay has as its system NIDD STZ rats. Briefly: Streptozotocin-induced non-insulin-dependent diabetes (NIDD) rat model: glycaemia, cholesterol, triglycerides. The following applies: STZ (45 mg/kg) diabetic male Wistar rats, oral treatment at the doses in Table 1, measured 23 days after STZ, mean ± SEM, 10 rats per group. In kind it is in vivo. From the text: Non-insulin-dependent diabetes (NIDD) is induced by injecting streptozotocin into male wistar rats. The action of clofibrate alone, of bezafibrate alone, of fenofibrate alone and of metformin alone was first evaluated in terms of glycaemia, cholesterol level and level of triglycerides. Next, the metformin+clofibrate, metformin+bezafibrate and metformin+fenofibrate combinations were studied. The procedure followed is as follows. […] Two weeks after this treatment, blood is taken and the glycaemia is measured. […] The animals then receive, orally, either metformin alone, or a fibrate alone, or a combination of the two in the doses indicated in Table 1 below. 23 days after the injection of streptozotocin, the animals are sacrificed and the following parameters are determined: glycaemia, cholesterol and triglycerides. […] The Student t test is carried out to evaluate the significance of the results obtained.

Regarding `CC(C)OC(=O)C(C)(C)Oc1ccc(C(=O)c2ccc(Cl)cc2)cc1` [Fenofibrate, fenofibrate], the Glycaemia came out at 1.92 ± 0.20 g/L. In addition, the Glycaemia (listed as fenofibrate) came to 1.92 g/L.
